Laboratory results as given in PMC5216056 (2017).
“And” between values parts separate entries of the source, which are not always exact repeats. Identical values can stand only once.

Sequences of proteins named here, by UniProt entry; tags and fusion partners are left off. A change or cut given only in a name is not applied to a line headed by its entry.
UniProt Q9Y2T6: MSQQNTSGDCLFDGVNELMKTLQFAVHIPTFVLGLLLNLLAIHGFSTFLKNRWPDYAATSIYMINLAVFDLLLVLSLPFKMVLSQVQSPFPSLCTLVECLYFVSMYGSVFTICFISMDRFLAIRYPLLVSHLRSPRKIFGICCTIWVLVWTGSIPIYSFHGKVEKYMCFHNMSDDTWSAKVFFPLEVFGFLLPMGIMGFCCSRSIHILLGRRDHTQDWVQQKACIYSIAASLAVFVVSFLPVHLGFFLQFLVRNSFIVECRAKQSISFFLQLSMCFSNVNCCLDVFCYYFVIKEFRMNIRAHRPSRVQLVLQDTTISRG
UniProt P21554, whole entry: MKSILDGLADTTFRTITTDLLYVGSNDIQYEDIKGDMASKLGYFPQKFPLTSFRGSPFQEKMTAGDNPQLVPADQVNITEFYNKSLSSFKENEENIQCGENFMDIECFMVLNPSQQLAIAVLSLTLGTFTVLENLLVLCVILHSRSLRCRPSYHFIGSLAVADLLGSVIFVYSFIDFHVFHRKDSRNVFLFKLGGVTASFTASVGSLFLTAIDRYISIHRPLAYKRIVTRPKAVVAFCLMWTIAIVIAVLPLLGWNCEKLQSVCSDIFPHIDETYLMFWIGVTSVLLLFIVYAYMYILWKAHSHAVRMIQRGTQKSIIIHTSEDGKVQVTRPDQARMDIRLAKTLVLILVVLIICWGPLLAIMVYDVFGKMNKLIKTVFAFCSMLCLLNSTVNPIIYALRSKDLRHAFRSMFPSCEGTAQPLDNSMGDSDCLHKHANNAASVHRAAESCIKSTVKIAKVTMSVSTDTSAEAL
UniProt Q6RI86, whole entry: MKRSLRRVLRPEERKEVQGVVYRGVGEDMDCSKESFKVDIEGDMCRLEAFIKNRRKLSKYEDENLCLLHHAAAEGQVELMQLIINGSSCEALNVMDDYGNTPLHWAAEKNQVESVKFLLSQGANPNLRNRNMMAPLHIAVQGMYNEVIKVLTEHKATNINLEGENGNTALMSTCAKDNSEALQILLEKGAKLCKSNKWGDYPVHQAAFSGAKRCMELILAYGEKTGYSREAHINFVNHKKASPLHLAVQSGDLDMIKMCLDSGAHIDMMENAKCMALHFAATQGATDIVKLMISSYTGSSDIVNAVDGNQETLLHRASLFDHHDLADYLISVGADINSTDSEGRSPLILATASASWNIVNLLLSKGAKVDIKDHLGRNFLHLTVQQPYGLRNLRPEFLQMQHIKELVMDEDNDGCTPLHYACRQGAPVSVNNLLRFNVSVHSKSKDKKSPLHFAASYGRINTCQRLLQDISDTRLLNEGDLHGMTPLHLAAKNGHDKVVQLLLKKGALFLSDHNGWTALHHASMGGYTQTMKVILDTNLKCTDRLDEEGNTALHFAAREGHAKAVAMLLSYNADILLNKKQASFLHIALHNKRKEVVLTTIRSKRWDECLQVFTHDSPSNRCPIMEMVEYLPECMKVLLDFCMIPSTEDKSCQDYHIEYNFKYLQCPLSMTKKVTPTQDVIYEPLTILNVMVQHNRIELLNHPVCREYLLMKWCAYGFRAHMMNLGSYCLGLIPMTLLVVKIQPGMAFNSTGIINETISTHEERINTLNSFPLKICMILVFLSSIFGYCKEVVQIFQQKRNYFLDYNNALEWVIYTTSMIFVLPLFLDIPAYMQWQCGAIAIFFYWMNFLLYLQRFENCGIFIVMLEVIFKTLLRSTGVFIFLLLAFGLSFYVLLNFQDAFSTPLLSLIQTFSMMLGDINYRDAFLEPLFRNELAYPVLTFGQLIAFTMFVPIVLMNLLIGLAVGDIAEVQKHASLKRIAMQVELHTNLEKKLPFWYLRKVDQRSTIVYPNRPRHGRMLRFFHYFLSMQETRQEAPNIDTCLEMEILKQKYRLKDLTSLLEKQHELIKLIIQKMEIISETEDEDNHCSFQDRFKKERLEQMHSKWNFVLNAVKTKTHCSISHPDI
UniProt P47746, whole entry: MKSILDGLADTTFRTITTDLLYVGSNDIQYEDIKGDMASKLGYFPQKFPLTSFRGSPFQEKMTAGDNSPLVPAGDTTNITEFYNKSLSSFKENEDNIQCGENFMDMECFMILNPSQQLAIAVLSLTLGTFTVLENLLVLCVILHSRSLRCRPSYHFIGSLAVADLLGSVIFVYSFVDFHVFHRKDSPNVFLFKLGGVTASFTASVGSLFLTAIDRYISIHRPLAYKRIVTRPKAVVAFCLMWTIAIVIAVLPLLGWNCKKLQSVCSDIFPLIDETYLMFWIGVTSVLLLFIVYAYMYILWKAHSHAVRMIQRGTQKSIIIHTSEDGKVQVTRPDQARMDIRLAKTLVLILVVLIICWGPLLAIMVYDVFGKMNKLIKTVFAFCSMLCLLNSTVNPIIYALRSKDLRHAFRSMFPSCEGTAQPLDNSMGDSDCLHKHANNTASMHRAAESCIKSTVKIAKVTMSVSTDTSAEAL
UniProt P47936: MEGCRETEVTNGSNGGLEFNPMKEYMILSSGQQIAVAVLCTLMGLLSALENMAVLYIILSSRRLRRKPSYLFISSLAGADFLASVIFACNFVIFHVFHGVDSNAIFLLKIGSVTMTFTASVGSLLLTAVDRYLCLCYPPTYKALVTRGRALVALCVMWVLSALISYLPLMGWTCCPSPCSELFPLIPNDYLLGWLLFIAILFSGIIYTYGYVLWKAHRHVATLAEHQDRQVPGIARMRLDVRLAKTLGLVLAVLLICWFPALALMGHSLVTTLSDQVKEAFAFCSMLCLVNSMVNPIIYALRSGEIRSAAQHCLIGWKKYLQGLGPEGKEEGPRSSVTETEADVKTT
UniProt Q8NER1, whole entry: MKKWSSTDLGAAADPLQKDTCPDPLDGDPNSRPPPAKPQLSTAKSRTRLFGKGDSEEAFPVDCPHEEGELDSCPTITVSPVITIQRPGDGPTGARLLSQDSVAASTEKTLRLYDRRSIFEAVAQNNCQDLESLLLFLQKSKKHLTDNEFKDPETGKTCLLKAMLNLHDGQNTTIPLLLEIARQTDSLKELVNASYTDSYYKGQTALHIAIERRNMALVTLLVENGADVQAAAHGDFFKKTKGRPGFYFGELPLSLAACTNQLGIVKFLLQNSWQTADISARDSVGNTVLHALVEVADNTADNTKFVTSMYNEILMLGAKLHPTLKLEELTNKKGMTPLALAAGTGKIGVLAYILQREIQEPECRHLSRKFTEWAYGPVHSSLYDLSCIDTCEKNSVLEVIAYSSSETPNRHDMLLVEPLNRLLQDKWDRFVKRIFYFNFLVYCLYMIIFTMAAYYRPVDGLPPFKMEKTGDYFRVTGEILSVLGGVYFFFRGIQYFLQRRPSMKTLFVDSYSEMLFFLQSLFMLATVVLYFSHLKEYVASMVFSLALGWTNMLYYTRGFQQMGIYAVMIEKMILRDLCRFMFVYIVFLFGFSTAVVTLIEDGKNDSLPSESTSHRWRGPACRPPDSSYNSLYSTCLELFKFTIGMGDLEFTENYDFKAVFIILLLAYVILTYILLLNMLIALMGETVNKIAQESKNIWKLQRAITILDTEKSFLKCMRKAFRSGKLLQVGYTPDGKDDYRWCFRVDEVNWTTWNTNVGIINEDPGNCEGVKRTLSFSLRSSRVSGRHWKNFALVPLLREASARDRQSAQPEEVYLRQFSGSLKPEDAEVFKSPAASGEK
UniProt P08183, whole entry: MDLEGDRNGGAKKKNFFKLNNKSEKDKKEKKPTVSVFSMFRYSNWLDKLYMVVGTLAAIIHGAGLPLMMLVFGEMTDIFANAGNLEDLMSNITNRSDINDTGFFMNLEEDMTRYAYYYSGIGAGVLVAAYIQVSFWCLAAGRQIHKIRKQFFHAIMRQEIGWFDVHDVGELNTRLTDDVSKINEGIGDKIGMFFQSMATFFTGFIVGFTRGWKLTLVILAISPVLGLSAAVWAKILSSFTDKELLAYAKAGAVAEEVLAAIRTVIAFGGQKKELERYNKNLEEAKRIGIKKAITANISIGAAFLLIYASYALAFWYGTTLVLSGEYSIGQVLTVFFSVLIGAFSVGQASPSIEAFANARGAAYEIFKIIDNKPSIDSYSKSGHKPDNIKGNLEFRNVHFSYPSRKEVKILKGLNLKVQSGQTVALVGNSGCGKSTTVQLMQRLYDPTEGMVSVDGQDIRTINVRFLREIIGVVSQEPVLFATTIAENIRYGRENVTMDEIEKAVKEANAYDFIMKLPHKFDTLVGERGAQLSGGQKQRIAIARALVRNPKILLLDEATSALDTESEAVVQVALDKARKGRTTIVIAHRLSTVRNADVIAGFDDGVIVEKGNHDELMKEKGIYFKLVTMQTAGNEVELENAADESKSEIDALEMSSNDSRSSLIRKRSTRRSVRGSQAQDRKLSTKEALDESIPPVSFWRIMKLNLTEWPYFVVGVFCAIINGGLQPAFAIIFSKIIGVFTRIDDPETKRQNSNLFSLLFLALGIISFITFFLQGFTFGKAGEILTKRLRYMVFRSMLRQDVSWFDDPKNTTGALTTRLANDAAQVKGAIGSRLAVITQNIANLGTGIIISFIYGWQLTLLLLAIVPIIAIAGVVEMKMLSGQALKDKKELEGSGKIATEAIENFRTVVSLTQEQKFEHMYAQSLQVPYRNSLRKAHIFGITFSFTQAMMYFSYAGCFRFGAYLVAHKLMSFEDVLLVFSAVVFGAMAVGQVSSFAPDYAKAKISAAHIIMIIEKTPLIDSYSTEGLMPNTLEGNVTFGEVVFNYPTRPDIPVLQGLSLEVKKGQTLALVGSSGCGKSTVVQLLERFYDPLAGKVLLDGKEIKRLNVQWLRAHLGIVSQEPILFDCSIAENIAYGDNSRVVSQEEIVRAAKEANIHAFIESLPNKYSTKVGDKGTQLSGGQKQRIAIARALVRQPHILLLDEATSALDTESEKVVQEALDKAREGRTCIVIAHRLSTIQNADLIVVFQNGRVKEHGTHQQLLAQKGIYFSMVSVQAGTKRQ
UniProt Q9ERZ8, whole entry: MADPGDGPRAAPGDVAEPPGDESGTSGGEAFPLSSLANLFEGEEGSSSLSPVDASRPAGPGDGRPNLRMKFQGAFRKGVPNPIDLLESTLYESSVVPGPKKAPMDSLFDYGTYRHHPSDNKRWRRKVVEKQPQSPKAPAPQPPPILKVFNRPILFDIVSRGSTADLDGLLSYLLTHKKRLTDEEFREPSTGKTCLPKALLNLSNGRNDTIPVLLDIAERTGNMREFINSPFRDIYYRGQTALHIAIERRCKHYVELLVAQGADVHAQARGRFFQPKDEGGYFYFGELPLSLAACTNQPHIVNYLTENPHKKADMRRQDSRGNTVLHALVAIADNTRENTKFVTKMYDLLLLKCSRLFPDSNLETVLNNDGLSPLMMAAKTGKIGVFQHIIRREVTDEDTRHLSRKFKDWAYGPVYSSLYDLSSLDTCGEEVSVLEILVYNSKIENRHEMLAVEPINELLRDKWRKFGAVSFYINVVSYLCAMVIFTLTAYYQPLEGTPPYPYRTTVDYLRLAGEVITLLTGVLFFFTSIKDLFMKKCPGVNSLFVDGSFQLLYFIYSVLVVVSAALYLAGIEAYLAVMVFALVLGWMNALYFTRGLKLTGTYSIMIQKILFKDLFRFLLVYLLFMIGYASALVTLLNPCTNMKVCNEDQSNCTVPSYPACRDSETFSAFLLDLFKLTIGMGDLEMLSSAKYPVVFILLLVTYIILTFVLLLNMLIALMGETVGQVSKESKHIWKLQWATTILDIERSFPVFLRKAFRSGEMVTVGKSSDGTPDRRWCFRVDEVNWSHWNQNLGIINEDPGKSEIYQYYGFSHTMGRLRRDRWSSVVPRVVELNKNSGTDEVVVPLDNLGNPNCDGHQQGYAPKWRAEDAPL

Columns and labels:
Rat recombinant TRPM8 = Rat recombinant TRPM8 (Rattus norvegicus, UniProt Q8R455); assay: TRP channel [Ca2+]i assay; format: cell-based; details: read-out: TRPM8 IC50 for antagonism of icilin; vs icilin […]
hGPR55 = hGPR55 (Homo sapiens, UniProt Q9Y2T6); format: cell-based; details: β-arrestin recruitment
hCB1R [1] = molecular target: T1, hCB1R (Homo sapiens, UniProt P21554)
Rat recombinant TRPA1 = Rat recombinant TRPA1 (Rattus norvegicus, UniProt Q6RI86)
mCB1R [2] = molecular target: T2, mCB1R (Mus musculus, UniProt P47746); format: biochemical; details: mouse brain
hCB1R [3] = molecular target: T1, hCB1R; remark: listed apart in the source
mouse P-gp = mouse P-gp (Mus musculus, UniProt P21447); details: efflux ratio
hCB1R [4] = molecular target: T1, hCB1R; remark: listed apart in the source
hCB1R [5] = molecular target: T1, hCB1R; remark: listed apart in the source
Rat recombinant TRPV2 = molecular target: T3, Rat recombinant TRPV2 (Rattus norvegicus, UniProt Q9WUD2); format: cell-based; details: read-out: TRPV2 IC50 for antagonism or desensitization; vs LPC 3μM
T3 sequence (Q9WUD2 1-761): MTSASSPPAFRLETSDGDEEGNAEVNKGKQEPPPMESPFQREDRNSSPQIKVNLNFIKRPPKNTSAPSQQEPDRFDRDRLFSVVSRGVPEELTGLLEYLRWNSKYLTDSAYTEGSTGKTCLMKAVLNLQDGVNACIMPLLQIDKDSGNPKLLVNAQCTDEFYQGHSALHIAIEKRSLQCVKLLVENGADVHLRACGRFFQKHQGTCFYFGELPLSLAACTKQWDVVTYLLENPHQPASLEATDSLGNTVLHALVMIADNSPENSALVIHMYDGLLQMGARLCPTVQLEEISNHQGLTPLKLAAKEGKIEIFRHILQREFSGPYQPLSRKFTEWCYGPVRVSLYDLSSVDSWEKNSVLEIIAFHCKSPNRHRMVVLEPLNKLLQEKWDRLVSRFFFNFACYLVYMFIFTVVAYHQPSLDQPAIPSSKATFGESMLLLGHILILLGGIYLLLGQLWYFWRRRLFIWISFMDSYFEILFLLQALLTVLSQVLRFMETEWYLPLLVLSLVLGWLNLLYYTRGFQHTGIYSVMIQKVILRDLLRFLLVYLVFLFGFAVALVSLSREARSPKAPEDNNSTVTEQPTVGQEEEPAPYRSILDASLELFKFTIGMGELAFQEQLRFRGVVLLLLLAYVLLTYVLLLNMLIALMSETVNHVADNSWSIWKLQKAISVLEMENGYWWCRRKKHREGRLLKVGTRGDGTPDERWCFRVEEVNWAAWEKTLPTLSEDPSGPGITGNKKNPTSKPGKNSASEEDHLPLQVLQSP

mCB2R = mCB2R (Mus musculus, UniProt P47936); format: biochemical; details: mouse spleen
Rat recombinant TRPV3 = molecular target: T4, Rat recombinant TRPV3 (Rattus norvegicus, UniProt Q4QYD9); format: cell-based; details: read-out: TRPV3 IC50 for antagonism or desensitization; vs thymol 100μM
T4 sequence (Q4QYD9 1-791): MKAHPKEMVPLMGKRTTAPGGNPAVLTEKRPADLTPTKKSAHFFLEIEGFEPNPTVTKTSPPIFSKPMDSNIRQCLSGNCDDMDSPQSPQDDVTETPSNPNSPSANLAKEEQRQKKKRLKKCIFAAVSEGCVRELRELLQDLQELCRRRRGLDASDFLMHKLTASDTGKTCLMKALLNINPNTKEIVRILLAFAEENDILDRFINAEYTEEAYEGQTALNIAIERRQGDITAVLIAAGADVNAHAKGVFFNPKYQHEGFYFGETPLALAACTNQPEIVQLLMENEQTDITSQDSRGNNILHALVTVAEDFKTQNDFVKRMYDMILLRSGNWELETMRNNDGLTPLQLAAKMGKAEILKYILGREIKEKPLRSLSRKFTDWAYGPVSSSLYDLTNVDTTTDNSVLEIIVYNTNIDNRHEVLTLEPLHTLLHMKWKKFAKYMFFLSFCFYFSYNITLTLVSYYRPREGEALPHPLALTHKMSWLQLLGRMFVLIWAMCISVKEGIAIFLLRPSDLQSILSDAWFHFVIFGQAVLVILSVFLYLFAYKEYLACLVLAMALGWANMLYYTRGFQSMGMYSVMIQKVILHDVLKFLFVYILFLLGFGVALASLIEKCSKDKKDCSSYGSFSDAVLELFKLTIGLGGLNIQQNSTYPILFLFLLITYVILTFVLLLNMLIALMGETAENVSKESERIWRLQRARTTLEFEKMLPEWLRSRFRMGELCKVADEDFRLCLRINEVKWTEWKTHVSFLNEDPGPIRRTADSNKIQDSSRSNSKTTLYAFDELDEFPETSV

[6] = logD distribution coefficient
[7] = i.v., mice
Human recombinant TRPV1 = Human recombinant TRPV1 (Homo sapiens, UniProt Q8NER1); format: cell-based; details: read-out: TRPV1 IC50 for antagonism or desensitization
[8] = 1 μM
[9] = 1 μM; remark: listed apart in the source
human P-gp = human P-gp (Homo sapiens, UniProt P08183); details: efflux ratio
Rat recombinant TRPV4 = Rat recombinant TRPV4 (Rattus norvegicus, UniProt Q9ERZ8); format: cell-based; details: read-out: TRPV4 IC50 for desensitization; vs 4αPDD 1μM
hCB1R [10] = molecular target: T1, hCB1R; remark: listed apart in the source
mCB1R [11] = molecular target: T2, mCB1R; format: binding; details: mouse brain membranes

For SR144528, which IC50 (Rat recombinant TRPM8) is on record?
The IC50 was 2.9 ± 1.3 µM.

And the “GPR55 pEC50 (± SEM)” value (hGPR55)?
The value was < 5.

And the “pEC50 ± SEM pERK hCB1R” value (hCB1R [1])?
The value was < 4.

And the IC50 (Rat recombinant TRPA1; read-out: TRPA1 IC50 for antagonism or desensitization, vs AITC 100μM, 5 min pre-incubation)?
Its IC50 is > 100 µM.

And the EC50 (Rat recombinant TRPA1; read-out: TRPA1 Potency EC50)?
Its EC50 is 8.9 µM.

What about the “pEC50 ± SEM cAMP mCB1R” value (mCB1R [2]) of the same substance?
The value was 5.54 ± 0.16.

What about the “pEC50 ± SEM β-AR recruitment hCB1R” value (hCB1R [3]) of the same substance?
Its value is 4.97 ± 0.13.

And the “P-gp (ER) mouse” value (mouse P-gp)?
The value was 5.6.

And the “pEC50 ± SEM GIRK hCB1R” value (hCB1R [4])?
Its value is < 5.

What about the “pEC50 ± SEM cAMP hCB1R” value (hCB1R [5]) of the same substance?
Its value is < 5.

And the IC50 (Rat recombinant TRPV2)?
The IC50 was > 50 µM.

What about the “pEC50 ± SEM cAMP mCB2R” value (mCB2R) of the same substance?
Its value is 8.25 ± 0.29.

What about the IC50 (Rat recombinant TRPV3) of the same substance?
The IC50 was > 100 µM.

What about the logD [6] of the same substance?
Its logD is > 3.

What about the AUCinf [7] of the same substance?
Its AUCinf is 1440 ng·h/mL.

And the AUCinf/dose [7]?
The AUCinf/dose was 1440 kg·ng·h/mL/mg.

What about the AUClast [7] of the same substance?
The AUClast was 1430 ng·h/mL.

And the CL [7]?
The CL was 11.5 mL/min/kg.

What about the T1/2 [7] of the same substance?
Its T1/2 is 2.1 h.

What about the Vss [7] of the same substance?
The Vss was 0.50 L/kg and < 1 L/kg.

And the C0 ([7]; 1.0-2.0 mg/kg, extrapolated)?
The C0 was 15800 ng/mL.

What about the IC50 (Human recombinant TRPV1) of the same substance?
Its IC50 is > 100 µM.

What about the CL microsomes mouse [8] of the same substance?
Its CL microsomes mouse is 446 µL/min/mg protein.

And the Pct acceptor (PAMPA)?
Its Pct acceptor is 0%.

What about the Pct donor (PAMPA) of the same substance?
Its Pct donor is 47%.

What about the Pct membrane (PAMPA, compound found in membranes) of the same substance?
Its Pct membrane is 54%.

What about the “Pampa Peff” value (membrane permeation coefficient) of the same substance?
The value was 0 cm/s*10-6.

What about the CL microsomes human [9] of the same substance?
The CL microsomes human was 129 µL/min/mg protein.

What about the “P-gp (ER) human” value (human P-gp) of the same substance?
Its value is 4.1.

What about the IC50 (Rat recombinant TRPV4) of the same substance?
The IC50 was > 100 µM.

What about the “pEC50 ± SEM GTPγS hCB1R” value (hCB1R [10]) of the same substance?
Its value is < 5.

What about the “pKi ± SEM mCB1R” value (mCB1R [11]) of the same substance?
Its value is 6.92 ± 0.2.
